According to paper PMC5384220, “Highly selective inhibition of histone demethylases by de novo macrocyclic peptides” (Nature Communications, 2017):

Target: T1, KDM5C (Homo sapiens, UniProt P41229)
T1 construct: KDM5C 1-765 Baculovirus; made in house
T1 sequence (P41229 1-765): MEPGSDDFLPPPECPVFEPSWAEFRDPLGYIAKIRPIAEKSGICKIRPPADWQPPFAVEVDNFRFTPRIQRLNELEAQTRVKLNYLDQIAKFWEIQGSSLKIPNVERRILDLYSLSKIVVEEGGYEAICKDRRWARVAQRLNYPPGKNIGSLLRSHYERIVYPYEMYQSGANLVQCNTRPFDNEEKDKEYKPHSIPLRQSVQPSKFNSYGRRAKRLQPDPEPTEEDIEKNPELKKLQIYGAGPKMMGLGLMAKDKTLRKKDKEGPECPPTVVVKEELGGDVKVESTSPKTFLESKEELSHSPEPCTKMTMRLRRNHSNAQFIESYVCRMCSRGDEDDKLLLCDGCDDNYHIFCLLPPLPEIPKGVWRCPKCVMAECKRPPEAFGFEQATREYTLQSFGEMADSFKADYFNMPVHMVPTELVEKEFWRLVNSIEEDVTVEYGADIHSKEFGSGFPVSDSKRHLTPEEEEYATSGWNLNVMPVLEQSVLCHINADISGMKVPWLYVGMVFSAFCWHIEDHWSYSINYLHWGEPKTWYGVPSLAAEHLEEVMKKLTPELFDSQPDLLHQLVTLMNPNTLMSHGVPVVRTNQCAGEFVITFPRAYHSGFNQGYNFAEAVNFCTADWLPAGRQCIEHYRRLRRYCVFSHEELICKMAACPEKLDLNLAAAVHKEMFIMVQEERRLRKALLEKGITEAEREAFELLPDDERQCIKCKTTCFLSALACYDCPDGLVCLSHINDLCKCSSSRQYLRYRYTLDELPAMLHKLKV
Test: AlphaScreen demethylase activity assay, KDM5C
Format: biochemical
Details: read-out: IC50 KDM5C
Method: IC50 values for KDM2–6 were measured using an AlphaScreen assay as described. The appropriate KDM (5 μl) was pre-incubated with an inhibitor (0.1 μl in DMSO) or DMSO for 15 min before the addition of 5 μl mixture of biotinylated peptide substrates, 2OG, ferrous ammonium sulfate (1–10 μM final) and ascorbate (100 μM final) to initiate the demethylation reaction. The reaction was quenched with 5 μl of 30 mM EDTA at predetermined reaction times for each enzyme (initial rate). Demethylated product was detected by addition of 5 μl of AlphaScreen donor and acceptor beads (AlphaScreen General IgG Detection Kit, 0.02 mg ml^−1 final each) pre-incubated with antibody. The plates were read after 1 h incubation in a BMG Labtech Pherastar FS plate reader. Data were normalized to a no enzyme control and IC50 values were calculated using nonlinear regression curve fits using GraphPad Prism. Assay buffer (50 mM HEPES pH 7.5, BSA (0.1% w/v) and Tween-20 (0.01% v/v)) was used throughout, except for dilution of stock ferrous ammonium sulfate solutions where water was used. The enzyme, substrate and antibody concentrations used are described in Supplementary Table 3. A fluorescence-based LSD1 inhibitor screening assay kit (Cayman, 700120) was used for KDM1/LSD1 assay. Assays for prolyl hydroxylase domain 2 and factor inhibiting HIF using matrix-assisted laser desorption/ionization–time of flight MS were performed as previously described. Prism 5.0 (GraphPad) was used to generate and to fit dose–response curves. IC50 values were determined by plotting percentage inhibition versus compound concentration relative to positive (vehicle) and negative (no enzyme) controls, using normalized dose–response (variable slope) fit. The reported values are the mean of multiple experiments (n≥3). The formaldehyde dehydrogenase coupled KDM assay was used to determine the mode of inhibition, using 0.5 μM His-KDM4A1–359. Prism 5.0 (GraphPad) was used to fit in mix-mode inhibition, to determine the kinetic parameters. Binding constants for CPs and H3(1–15)K9me3 were measured using biolayer interferometry (OctetRed 384, ForteBio) in buffer (50 mM HEPES (pH 7.5), 150 mM NaCl, 10 μM ammonium iron(II) sulphate). His-KDM4A1–359-Bio (70 nM) was immobilized onto super streptavidin biosensor and subjected to different peptide concentrations in buffer. Data analysis was performed using ForteBio Data Aalysis (v6.4).
Construct Expression [E] / nM [2OG] / µM [Fe(II)] / µM Peptide / nM Peptide sequence Antibody Source […]
Supplementary Table 3. AlphaScreen assay parameters for 2OG oxygenases used for this study. The table was dapted from 10. Assays were performed at 2OG concentration near the 2OG Km values determined experimentally.11 All enzymes were expressed and purified as described.10-12

DYVYNTRSDAWRWYT(meC) [CP2.1] and DYVYNTRSGWRWYTC [CP2] cannot be ordered by IC50: 16.5 µM for the first, over 10 µM for the second.

LYSKYTQSGVRWVC [CP5] and LYLKSRRSGLTWIPC [CP4] cannot be ordered by IC50: over 10 µM for the first, over 10 µM for the second.
